The text below walks through data of patent publication US20240189408A1, “COMPOSITIONS AND METHODS FOR REDUCING METHANE EMISSIONS IN RUMINANT POPULATIONS” (Arkea Bio Corp., priority 2022, published 2024).

A short description of the data set: Adsorbent study: binding affinity and adsorptive capacity for 3-NOP, HPLC at 230 nm. The conditions noted are these: 0.2 g of adsorbent in 10 mL of 1% 3-NOP/H2O, after 24h; control 8.258 mM.

Iron Phosphate: the 3-NOP concentration was 7.503 mM.
